The text below walks through data of patent US11547681B2, “N-acylethanolamide derivatives and uses thereof” (ELIEM THERAPEUTICS, INC., priority 2016, dated 2023).

A short description of data set [1]: Liver S9 stability, mouse. The settings on record: male, CD-1, mouse.
A short description of the next data set: Liver S9 stability, rat. The settings on record: male, Sprague-Dawley, s9, Half-life (min), control compound.

Molecules are shown by their SMILES.

In the case of `C[C@]12CC[C@H]3[C@@H](CCC4=CC(=O)CC[C@@]43C)[C@@H]1CC[C@@H]2O` [Testosterone, testosterone], the half-life at 1 μM in data set [1] came out at 7.1 min. In addition, the Half-life in “Liver S9 stability, rat” was found to be 4.7 min.
